Experimental data: patent US4816465A, “Decahydroquinolines and analgesic use thereof” (dated 1989)

By UniProt entry, the sequences of proteins in these tests, tags left out.
UniProt P41144, whole entry: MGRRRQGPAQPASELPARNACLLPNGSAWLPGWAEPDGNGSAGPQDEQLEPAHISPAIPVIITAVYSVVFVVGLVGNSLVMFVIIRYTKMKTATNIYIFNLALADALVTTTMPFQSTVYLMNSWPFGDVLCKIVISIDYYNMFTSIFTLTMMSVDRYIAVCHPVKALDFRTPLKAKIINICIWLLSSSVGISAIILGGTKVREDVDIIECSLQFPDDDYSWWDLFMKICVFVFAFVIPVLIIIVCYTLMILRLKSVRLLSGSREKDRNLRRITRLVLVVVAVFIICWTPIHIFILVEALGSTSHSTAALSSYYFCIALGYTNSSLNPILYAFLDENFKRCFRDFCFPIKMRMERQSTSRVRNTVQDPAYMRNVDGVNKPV

Biological target: Opiate Receptor K (Cavia porcellus, UniProt P41144)
Test: Bond with the Opiate Receptor K in vitro (displacement of 3H ethylketocyclazocine, guinea-pig cerebella membranes)
Details: read-out: IC50 (50% inhibiting concentration), 9 3H ethylketo-cyclazocine 1 nM, Tris pH 7.7, 25° C., 40 minutes
Procedure: Membrane residues were used kept at -30° C. for about 30 days, and prepared from the cerebella of guinea-pigs. These residues were put back into suspension in Tris buffer pH 7.7 and 2 ml fractions were distributed in hemolysis tubes and 9^3 H ethylketo-cyclazocine InM and the product under test were added. The product was first tested at 5×10^-6 M (in triplicate). When the product tested displaced by more than 50%, the radio-activity bonded specifically to the receptor, it was tested again over a range of 7 doses to determine the dose which inhibited by 50% the radio-acitivity bonded specifically to the receptor. In this way, the 50% inhibiting concentration was determined.
The non-specific bonding was determined by the addition of the product known under the name U-50488 H at 10^-5 M (in triplicate). After incubating at 25° C. for 40 minutes, returning to the water-bath at 0° C. for 5 minutes, filtering under vacuum, and rinsing with Tris buffer pH 7.7, the radio-activity was counted in the presence of scintillating Trition. The results were expressed directly as the 50% inhibiting concentration (IC50), that is to say, in concentration of the product studied, expressed in nM, necessary in order to displace 50% of the specific radio-activity fixed on the receptor studied.

For O=C(c1ccc(Cl)c(Cl)c1)N1CCC[C@@H]2CCC[C@@H](N3CCCC3)[C@@H]21 (relative stereo), the IC50 was 7.4 nM.
